Laboratory results as given in US11207431B2, “HDAC6 inhibitors and imaging agents” (The General Hospital Corporation, priority 2017, dated 2021).

Protein sequences, listed by entry. Tags and fused reporters are not part of them. Lines headed by an entry give the natural chain unless they say otherwise; changes in a name come on top.
UniProt P56524: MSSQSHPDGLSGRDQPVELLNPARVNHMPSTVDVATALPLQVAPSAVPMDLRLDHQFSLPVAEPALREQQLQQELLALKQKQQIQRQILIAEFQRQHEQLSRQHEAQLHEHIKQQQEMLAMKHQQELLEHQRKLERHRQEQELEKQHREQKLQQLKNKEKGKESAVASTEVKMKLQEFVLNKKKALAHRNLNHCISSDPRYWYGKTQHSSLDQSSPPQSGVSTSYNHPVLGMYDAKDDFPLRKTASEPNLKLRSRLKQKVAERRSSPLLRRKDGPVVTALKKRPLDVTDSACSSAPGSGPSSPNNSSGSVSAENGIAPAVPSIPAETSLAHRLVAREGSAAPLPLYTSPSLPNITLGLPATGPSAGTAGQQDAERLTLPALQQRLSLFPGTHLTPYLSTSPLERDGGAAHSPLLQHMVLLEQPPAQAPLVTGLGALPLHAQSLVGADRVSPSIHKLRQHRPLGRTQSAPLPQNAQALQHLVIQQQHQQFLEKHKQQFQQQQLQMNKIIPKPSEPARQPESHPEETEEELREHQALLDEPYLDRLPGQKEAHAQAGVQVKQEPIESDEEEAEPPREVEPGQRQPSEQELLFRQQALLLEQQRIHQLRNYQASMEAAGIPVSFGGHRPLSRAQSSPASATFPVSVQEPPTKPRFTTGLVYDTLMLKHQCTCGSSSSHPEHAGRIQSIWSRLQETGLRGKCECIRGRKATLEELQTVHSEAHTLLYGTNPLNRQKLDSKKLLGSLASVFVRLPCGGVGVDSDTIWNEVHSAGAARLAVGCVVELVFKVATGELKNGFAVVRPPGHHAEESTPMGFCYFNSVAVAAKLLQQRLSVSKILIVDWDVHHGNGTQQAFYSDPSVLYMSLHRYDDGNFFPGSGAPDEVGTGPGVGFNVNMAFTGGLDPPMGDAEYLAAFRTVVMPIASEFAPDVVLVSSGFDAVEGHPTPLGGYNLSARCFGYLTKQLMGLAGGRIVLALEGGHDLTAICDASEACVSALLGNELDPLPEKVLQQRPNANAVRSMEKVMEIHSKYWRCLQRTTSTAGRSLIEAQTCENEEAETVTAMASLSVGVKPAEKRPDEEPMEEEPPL
UniProt Q9UQL6: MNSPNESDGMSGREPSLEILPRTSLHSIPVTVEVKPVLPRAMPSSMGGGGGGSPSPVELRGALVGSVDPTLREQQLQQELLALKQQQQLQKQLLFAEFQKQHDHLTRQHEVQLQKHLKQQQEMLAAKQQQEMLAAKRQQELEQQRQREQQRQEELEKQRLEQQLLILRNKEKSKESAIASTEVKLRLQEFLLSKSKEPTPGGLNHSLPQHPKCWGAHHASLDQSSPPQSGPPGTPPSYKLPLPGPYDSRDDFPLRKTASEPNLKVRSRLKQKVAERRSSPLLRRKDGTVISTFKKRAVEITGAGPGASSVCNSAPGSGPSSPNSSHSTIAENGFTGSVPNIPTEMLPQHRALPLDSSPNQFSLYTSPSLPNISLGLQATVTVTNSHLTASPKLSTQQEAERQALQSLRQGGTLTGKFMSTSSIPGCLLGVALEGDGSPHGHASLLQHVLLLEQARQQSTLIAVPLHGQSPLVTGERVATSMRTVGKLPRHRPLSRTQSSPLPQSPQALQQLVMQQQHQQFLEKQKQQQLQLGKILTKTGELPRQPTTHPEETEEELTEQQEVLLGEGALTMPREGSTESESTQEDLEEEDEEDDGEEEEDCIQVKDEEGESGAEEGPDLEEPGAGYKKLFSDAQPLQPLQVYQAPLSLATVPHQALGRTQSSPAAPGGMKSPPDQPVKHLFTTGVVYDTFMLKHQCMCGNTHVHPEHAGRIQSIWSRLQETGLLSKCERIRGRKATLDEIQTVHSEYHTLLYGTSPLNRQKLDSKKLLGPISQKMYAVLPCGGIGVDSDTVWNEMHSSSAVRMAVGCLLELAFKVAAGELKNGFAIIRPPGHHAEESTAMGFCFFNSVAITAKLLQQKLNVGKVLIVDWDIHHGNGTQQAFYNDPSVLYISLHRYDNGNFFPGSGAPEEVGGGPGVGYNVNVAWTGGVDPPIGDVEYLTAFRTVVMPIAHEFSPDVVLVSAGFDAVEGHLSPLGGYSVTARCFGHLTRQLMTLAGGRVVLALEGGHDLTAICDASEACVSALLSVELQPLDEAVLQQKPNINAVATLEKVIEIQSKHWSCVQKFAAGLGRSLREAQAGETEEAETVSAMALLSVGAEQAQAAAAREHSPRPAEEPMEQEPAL
UniProt Q9BY41: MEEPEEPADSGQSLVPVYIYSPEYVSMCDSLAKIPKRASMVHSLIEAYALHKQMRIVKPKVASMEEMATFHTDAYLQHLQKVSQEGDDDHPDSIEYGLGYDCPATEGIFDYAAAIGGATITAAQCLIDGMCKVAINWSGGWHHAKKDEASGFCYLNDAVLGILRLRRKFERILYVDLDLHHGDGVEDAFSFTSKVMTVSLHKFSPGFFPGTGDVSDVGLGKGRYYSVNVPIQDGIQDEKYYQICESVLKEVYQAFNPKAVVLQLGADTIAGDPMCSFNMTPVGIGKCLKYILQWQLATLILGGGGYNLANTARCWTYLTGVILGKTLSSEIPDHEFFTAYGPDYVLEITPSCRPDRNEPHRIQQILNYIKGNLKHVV
UniProt Q9UKV0: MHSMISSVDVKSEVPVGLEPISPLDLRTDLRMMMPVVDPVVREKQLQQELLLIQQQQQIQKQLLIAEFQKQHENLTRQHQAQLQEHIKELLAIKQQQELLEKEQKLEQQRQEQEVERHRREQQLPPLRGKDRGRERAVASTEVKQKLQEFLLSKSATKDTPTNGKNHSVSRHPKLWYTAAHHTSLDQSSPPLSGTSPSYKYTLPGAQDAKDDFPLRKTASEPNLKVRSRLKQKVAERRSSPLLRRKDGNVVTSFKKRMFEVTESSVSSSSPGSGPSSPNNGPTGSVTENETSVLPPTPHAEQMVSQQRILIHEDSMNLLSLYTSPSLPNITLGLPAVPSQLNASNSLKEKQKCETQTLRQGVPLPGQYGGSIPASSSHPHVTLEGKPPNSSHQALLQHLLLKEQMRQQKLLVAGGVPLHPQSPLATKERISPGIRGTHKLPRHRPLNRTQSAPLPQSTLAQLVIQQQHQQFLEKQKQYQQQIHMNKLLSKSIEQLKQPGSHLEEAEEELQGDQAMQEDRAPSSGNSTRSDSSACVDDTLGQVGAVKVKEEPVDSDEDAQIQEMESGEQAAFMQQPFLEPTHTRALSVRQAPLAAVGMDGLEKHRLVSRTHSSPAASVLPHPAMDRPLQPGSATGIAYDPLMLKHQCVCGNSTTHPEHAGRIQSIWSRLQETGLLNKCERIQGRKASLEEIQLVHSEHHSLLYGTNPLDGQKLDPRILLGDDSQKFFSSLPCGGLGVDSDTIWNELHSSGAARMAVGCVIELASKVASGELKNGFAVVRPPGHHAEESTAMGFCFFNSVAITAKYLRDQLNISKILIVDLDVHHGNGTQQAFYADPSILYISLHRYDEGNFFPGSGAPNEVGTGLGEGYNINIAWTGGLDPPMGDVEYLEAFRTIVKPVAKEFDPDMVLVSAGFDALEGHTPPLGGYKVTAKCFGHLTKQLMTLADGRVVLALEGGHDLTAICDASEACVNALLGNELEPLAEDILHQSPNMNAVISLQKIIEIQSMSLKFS
UniProt Q96DB2: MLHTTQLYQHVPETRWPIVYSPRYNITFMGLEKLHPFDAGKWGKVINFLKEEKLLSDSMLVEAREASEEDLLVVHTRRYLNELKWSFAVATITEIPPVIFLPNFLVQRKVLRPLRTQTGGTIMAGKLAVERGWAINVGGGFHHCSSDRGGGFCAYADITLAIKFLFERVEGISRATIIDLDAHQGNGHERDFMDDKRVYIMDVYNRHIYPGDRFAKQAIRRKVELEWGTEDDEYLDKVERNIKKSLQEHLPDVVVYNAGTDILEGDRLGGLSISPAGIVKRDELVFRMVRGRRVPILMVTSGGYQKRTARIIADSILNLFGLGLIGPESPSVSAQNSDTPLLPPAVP

What was measured:
Experiment in all cases: IC50 assay, BPS Biosciences fluorescence assay
Assay type in all cases: biochemical
HDAC4 = HDAC4 (Homo sapiens (Human), UniProt P56524)
HDAC5 = HDAC5 (Homo sapiens (Human), UniProt Q9UQL6)
HDAC8 = HDAC8 (Homo sapiens (Human), UniProt Q9BY41)
HDAC9 = HDAC9 (Homo sapiens (Human), UniProt Q9UKV0)
HDAC11 = HDAC11 (Homo sapiens (Human), UniProt Q96DB2)

Substance TSA has an IC50 (HDAC4) of 2900 nM, an IC50 (HDAC5) of 1700 nM and an IC50 (HDAC8) of 546 nM. The IC50 (HDAC9) was 3800 nM and the IC50 (HDAC11) was 10000 nM.
